Assay results as given in ChEMBL document CHEMBL1152084 (Bioorg Med Chem Lett, 1997).

Sequences of proteins named here, by UniProt entry; tags and fusion partners are left off.
UniProt Q02750, whole entry: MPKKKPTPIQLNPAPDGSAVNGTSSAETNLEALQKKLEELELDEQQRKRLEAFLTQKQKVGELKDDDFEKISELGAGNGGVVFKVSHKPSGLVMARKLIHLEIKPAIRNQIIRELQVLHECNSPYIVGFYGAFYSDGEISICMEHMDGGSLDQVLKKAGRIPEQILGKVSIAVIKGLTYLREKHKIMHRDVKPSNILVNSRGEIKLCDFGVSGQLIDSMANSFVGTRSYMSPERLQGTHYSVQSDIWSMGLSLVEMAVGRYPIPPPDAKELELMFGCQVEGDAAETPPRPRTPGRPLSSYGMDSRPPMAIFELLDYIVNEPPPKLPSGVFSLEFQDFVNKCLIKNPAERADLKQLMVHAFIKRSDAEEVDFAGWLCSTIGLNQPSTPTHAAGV

Molecular target: Dual specificity mitogen-activated protein kinase kinase 1 (Homo sapiens, UniProt Q02750)
Experiment: Inhibition of MAPKK

- IC50: > 10 µM
Structure (SMILES): COc1ccc(Oc2ccnc3cc(OC)c(OC)cc23)cc1OC
